ChEMBL document CHEMBL1140742, “Discovery of novel chemotypes to a G-protein-coupled receptor through ligand-steered homology modeling and structure-based virtual screening” (J Med Chem, 2008)

Chains of the proteins cited; added tags and fusions are not shown. Lines headed by an entry give the natural chain unless they say otherwise; changes in a name come on top.
UniProt Q99705: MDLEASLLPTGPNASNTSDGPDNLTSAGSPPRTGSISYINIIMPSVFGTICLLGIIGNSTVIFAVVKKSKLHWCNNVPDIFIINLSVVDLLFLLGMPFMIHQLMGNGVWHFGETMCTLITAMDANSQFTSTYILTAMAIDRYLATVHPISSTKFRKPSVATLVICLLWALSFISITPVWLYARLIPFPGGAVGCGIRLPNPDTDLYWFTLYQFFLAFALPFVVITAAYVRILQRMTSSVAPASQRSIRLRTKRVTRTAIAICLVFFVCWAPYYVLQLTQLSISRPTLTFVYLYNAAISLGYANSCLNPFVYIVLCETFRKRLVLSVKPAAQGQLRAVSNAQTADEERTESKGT

Biological target: Melanin-concentrating hormone receptor 1 (Homo sapiens, UniProt Q99705)
Test: Displacement of [125I]MCH from human MCHR1 expressed in CHO cell membranes at 5 ug/ml

SMILES: O=C(NC(Sc1ccc(Cl)cc1)C(Cl)(Cl)Cl)Sc1ccc(Cl)cc1 (stereo unspecified)
- inhibition: 17%
